Measurements reported in paper PMC3722453, “N-truncated amyloid β (Aβ) 4-42 forms stable aggregates and induces acute and long-lasting behavioral deficits” (Acta Neuropathologica, 2013).
“Also recorded” adds a separate entry of the source.

Key:
[1] = Transmission electron microscopy (TEM) of aggregates; type: physicochemical; conditions: 0.1 mg/mL, HEPES 25 mM pH 7.4, 50 mM NaCl, 3 days at 37 °C with gentle stirring
Procedure: Peptide samples of 0.1 mg/mL concentration in HEPES buffer (25 mM, pH 7.4, 50 mM NaCl) were incubated at 37 °C with gentle stirring. After 3 days of incubation, samples were diluted, deposited onto carbon-coated copper mesh grids and negatively stained with 2 % (w/v) uranyl acetate. The excess stain was washed away, and the sample grids were allowed to air-dry. The samples were then viewed with a 120-kV transmission electron microscope.

[2] = tested on: primary cortical neurons; test: Calcein-AM cell viability assay; type: cell-based, Wistar rat
Procedure: Cortical neurons from embryonic day 16–17 Wistar rat fetuses were prepared as previously described. In brief, dissociated cortical cells were plated at 50,000 cells/well in 48-well plates precoated with 1.5 mg/mL polyornithine (Sigma). Cells were cultured in a chemically defined Dulbecco’s Modified Eagle’s/F12 medium free of serum (Gibco) and supplemented with hormones, proteins and salts. Cultures were kept at 35 °C in a humidified 5 % CO2 atmosphere, and at 6–7 DIV, cortical population was determined to be at least 97 % neurons by immunostaining as done previously. At 6 DIV, the medium was removed and cortical neurons were incubated for 24 h with vehicle (cell culture medium) or Aβ peptides (dissolved in cell culture medium) at the indicated concentrations.
Following a 24-h incubation of primary cortical neurons with Aβ peptides, cell viability was determined using a calcein-AM assay (Invitrogen, Molecular Probes). Briefly, cells were washed twice with PBS and incubated to protect from light for 30 min at room temperature in the presence of 2 μM calcein-AM solution prepared in PBS. Cells were then washed twice with PBS and incubated for 15 min at room temperature in PBS containing 1 % Triton X-100 (v/v). The level of calcein fluorescence was monitored by fluorescence emission at 530 nm after exciting at 485 nm, using a Fluostar microplate reader (BMG-Labtechnologies, France).

[3] = SDS-PAGE Western blot of Aβ peptides (stable aggregates); type: physicochemical; conditions: 1 μg peptide, reducing conditions, antiserum 24311
Procedure: Lyophilized Aβ peptides were dissolved in 10-mM NaOH at a concentration of 1 mg/mL, aliquoted in 50 μL volumes, flash-frozen in liquid nitrogen and stored at −80 °C until use. For Western blot analysis under reducing conditions, 1 μg peptides were loaded on 4–12 % VarioGels (Anamed), transferred to 0.45 μm nitrocellulose membranes and detected using the primary antiserum 24311 (pan-Aβ, 1:500) or monoclonal antibody 4G8 (Aβ17-24, Signet; 1:500). For Western blotting of mouse brain, whole brain SDS lysates were used. Running and transfer buffers were applied according to the manufacturer. The blots were developed using enhanced chemiluminescence according to the manufacturer (Roth). Horse radish conjugated swine anti-rabbit antibody was used as a secondary antibody (1:3,000, Dianova).

[4] = Far-UV circular dichroism (CD) spectroscopy; type: physicochemical; conditions: 0.2 mg/mL, phosphate buffer 20 mM pH 7.2, 20 °C, monomeric state
Procedure: Samples of 0.2 mg/mL peptide concentration in phosphate buffer (20 mM, pH 7.2) were prepared. The far-UV CD measurements were conducted on a Chirascan CD spectrometer, with a 1-mm path length quartz cell, 1-nm bandwidth and 8-s collection time for each point at 0.5 nm steps between 190 and 260 nm. The buffer spectrum was also measured and subtracted from the spectra of Aβ peptides. The temperature-dependence of secondary structure was studied through far-UV measurements at three different temperatures, 20, 30 and 40 °C. The reversibility of temperature-induced changes was checked with an additional CD spectrum measured after cooling down from 40 to 20 °C. The CD spectrum of the cooled sample was taken after 5 min of equilibration at 20 °C. The 0.2 mg/mL Aβ samples in phosphate buffer (20 mM, pH 7.2) containing 25 mM NaCl were incubated at 37 °C for 3 days with gentle stirring. Following ThT fluorescence measurements which confirmed the presence of ThT-reactive aggregates in the peptide samples, the far-UV CD spectra were obtained at 20 °C as described above.

[5] = Thioflavin T (ThT) fluorescence aggregation kinetics; type: physicochemical; conditions: 40 μM peptide, HEPES 25 mM pH 7.4, 50 mM NaCl, 30 μM ThT, 37 °C, gently stirred
Procedure: Peptide samples of 40 μM concentration were prepared in HEPES buffer (25 mM, pH 7.4) containing 50 mM NaCl and 30 μM Thioflavin T (ThT). The kinetics of Aβ aggregation were then followed by real-time fluorescence emission measurement of ThT while the sample was kept at 37 °C and gently stirred. The excitation and emission wavelengths were 446 and 485 nm, respectively, with slits of 10 nm each.

[6] = Dynamic light scattering (DLS) of peptide supernatants; type: physicochemical
[7] = tested on: C57BL/6 J wildtype mice; test: Y-maze working memory after intracerebroventricular injection of soluble Aβ; type: in vivo, mouse; conditions: 50 pmol in 1 μL icv, male C57BL/6 J mice 12-week old, n = 6 per group, Y-maze on day 4, 5-min session
Procedure: Male C57BL/6 J mice (12-week old, Janvier, Le Genest-St-Isle, France; n = 6 per treatment group) were housed five to six per cage with free access to food and water, and were kept in a constant environment (22 ± 2 °C, 50 ± 5 % humidity, 12-h light cycle). Under anesthetization, freshly prepared Aβ peptides (50 pmol in 1 μL; 0.1 M phosphate-buffered saline (pH 7.4)) or vehicle (0.1 M phosphate-buffered saline) were injected into the right ventricle, with stereotaxic coordinates from the bregma (AP −0.22, L −1.0 and D 2.5 in mm). Intracerebroventricular (icv) injections were made using a 10-μl Hamilton microsyringe fitted with a 26-gauge needle. Four days following icv infusion of Aβ peptides, working memory was assessed using the Y-maze test.
Immediate spatial working memory performance in male C57BL/6 J wildtype mice (12-week old, Janvier, Le Genest-St-Isle, France; n = 6 per treatment group) was assessed by recording spontaneous alternation behavior in a Y-maze as described previously. […] The series of arm entries were recorded visually and arm entry was considered to be completed when the hind paws of the mouse were completely placed in the arm. […] The percentage alternation was calculated as the ratio of actual (total alternations) to possible alternations (defined as the number of arm entries minus two), multiplied by 100.

[8] = 1D 1H NMR monomer consumption assay; type: physicochemical; conditions: 40 μM peptide, phosphate buffer 20 mM pH 7.2, 25 mM NaCl; after 14 h of incubation at 37 °C; methyl and aromatic 1H signals normalised to DSS
Procedure: 1D ^1H NMR spectra of the five different Aβ peptides were measured at 5 °C at 400 MHz ^1H Larmor frequency. The samples contained 40-μM peptide in phosphate buffer (20 mM, pH 7.2) with 25-mM NaCl. The aggregation propensity of the Aβ variants were then studied through real-time 1D ^1H NMR experiments at 37 °C continued for 14 h at 1-h intervals. The integrated intensity of ^1H peaks at two regions (0.50–1.05 ppm, 6.50–8.00 ppm), after chemical shift using DSS ([…]) as a reference standard, was then calculated. After normalization by the integrated intensity of the DSS peak at 0 ppm, the relative intensity of the peptide ^1H peaks was used to probe peptide monomer consumption during the early phases of peptide aggregation.

[9] = DLS at 20 °C, 0.2 mg/mL, phosphate buffer 20 mM pH 7.4, 25 mM NaCl, after 24 h at 37 °C without agitation, supernatant after 16,000g 15 min

Question: With “Aβ4-42: N-truncated amyloid β peptide beginning with phenylalanine at position 4, purchased from PSL” as the substance, how does the “aggregate morphology by TEM” value [1] read?
Answer: Its value is “clumps of fibrillar aggregates”.

Question: And the “effect on cell viability” value ([2]; 24 h incubation with freshly prepared peptide at different concentrations, calcein-AM fluorescence)?
Answer: Its value is “dose-dependent reduction in cell viability”.

Question: What about the “toxicity compared with Aβ4-40 at 5 μM” value ([2]; 24 h incubation, 5 μM, calcein-AM) of the same substance?
Answer: Its value is “more potent than Aβ4-40”.

Question: And the “toxicity profile compared to vehicle control” value ([2]; 24 h incubation, calcein-AM, ANOVA with Bonferroni multiple comparisons)?
Answer: Its value is “strongest toxic effect”.

Question: What about the “higher molecular weight oligomers on SDS-PAGE after aging” value ([3]; after 1 and 3 days of aging) of the same substance?
Answer: Its value is “higher molecular weight oligomers in addition”.

Question: And the “species on SDS-PAGE, freshly dissolved peptides” value ([3]; freshly dissolved)?
Answer: The value was “monomers and aggregates most likely representing trimer/tetramers”.

Question: And the “secondary structure by far-UV CD spectrum” value [4]?
Answer: Its value is “disordered state; also recorded: unstructured in the monomeric state”.

Question: And the “formation of ThT-reactive aggregates” value [5]?
Answer: The value was “significant ThT-reactivity already during the nucleation phase of aggregation”.

Question: And the “hydrodynamic radius of larger aggregates” value [6, 9]?
Answer: The value was 30 to 50 nm.

Question: What about the “hydrodynamic radius of small (main) aggregates” value [6, 9] of the same substance?
Answer: Its value is ~ 10 nm.

Question: What about the “light scattering intensity upon aggregation (rank among five Aβ peptides)” value ([6]; after 24 h at 37 °C, 0.2 mg/mL, phosphate buffer pH 7.4, 25 mM NaCl, three measurements of the same sample) of the same substance?
Answer: The value was “biggest intensities”.

Question: What about the “light scattering intensity before aggregation (rank among five Aβ peptides)” value ([6]; freshly prepared 0.2 mg/mL, phosphate buffer pH 7.4, 25 mM NaCl, 20 °C, three measurements of the same sample) of the same substance?
Answer: The value was “highest scattering intensity”.

Question: What about the “working memory (Y-maze alternation rate)” value [7] of the same substance?
Answer: The value was “significantly reduced”.

Question: What about the “loss of initial 1H NMR signal intensity (monomer consumption)” value [8] of the same substance?
Answer: The value was about 20%.
